Here are results for one substance from patent publication US6645755B1, “VECTOR MODIFIED BY SEQUENCE CODING FOR A SEQUENCE OF AMINO ACIDS CONTAINED IN A MAMMALIAN PROTEIN HAVING THE BIOLOGICAL ACTIVITY OF A MEMBRANE RECEPTOR, EXPRESSION OF THIS SEQUENCE IN TRANSFORMED UNICELLULAR CULTURES BY MEANS OF THIS VECTOR, PROCEDURE FOR STUDYING LIGANDS RECOGNIZING THESE RECEPTORS” (Centre National de la Recherche Scientifique, priority 1988, dated 2003).

In this experiment the target is T1, human β2-adrenergic receptor (Homo sapiens, UniProt P07550).
T1 construct: extending from the NcoI site to the DraI site which contained the coding region for the human β2-adrenergic receptor; β-galactosidase (lacZ product of λgt11, fused at the EcoRI site near the 3' end of lacZ) (N); linker Asp-Asp-Pro (acid-cleavable) (N); expressed in transfected cells; host or cells: E. coli Y1089 lysogenized with recombinant λgt11
It is filed as binding.

As usually defined, the Ki is the dissociation constant of the complex between target and ligand, obtained from inhibition or displacement. With (−) norepinephrine, the Ki is 9.1 ± 1.1 µM.
